Target: human β2-AR (Homo sapiens (Human), UniProt P07550)
Conditions: relative to (R,R)-3

C[C@@H](Cc1ccc(N)cc1)NC[C@H](O)c1cc(O)cc(O)c1.O=C(O)/C=C/C(=O)O
change of Kiβ2 relative to the (R,R)-3/β2-AR complex: 3 fold

Source: patent US10925840B2, “Use of fenoterol and fenoterol analogues in the treatment of glioblastomas and astrocytomas” (priority 2010, dated 2021)
